# Experimental data taken from patent US8518710B2, “Photon reducing agents for fluorescence assays” (Life Technologies Corporation, priority 1997, dated 2013).
# Assay: Reduction of solution fluorescence by transition metal salts and complexes (Example 5)
# Details: 10 μM fluorophore, K-MOPS pH 7.15, ex 395 nm, em 460 nm
substance,measurement,value
potassium ferricyanide (III),concentration range reducing coumarin fluorescence,low millimolar range
